Test system: BM stromal cells
Experiment: Effect of soluble factors on CYP26A1 expression in BM stromal cells
Assay type: cell-based
Details: soluble factor added to BM stromal cells
Protocol: qRT-PCR. Total RNA was extracted using the RNeasy Mini Kit (QIAGEN) according to the manufacturer's instructions. cDNA was synthesized by reverse transcription using the iScript cDNA Synthesis Kit (Bio-Rad). qRT-PCR was performed with iTaq SYBR Green Supermix (Bio-Rad) using sequence specific primers. Gene expression was normalized to GAPDH, and relative quantification was calculated using ΔΔCt. All experiments were performed in duplicate and run on the Bio-Rad CFX96 machine.
MM cells produce a variety of soluble factors including cytokines (IL-1, IL-3, IL-6, TNF-α) as well as Hedgehog ligands such as sonic hedgehog (SHH), which could impact the BM stromal compartment. Therefore, it was determined whether any of these factors was responsible for the observed upregulation of CYP26A1 on BM stromal cells. […] Consistent with this, there was a statistically significant correlation between the mRNA levels of SHH in MM cells and activation of stromal Hedgehog signaling as determined by protein patched homolog 1 (PTCH1) expression. […] SHH has a half-life of less than 1 hr, which may explain the reduced effect of MM-conditioned media on stromal CYP26A1 expression compared with that observed in coculture and Transwell experiments.

B1: IL-3: cytokine, soluble factor produced by MM cells (protein, UniProt P08700 20-152, looked up)
Interleukin-3: APMTQTTPLKTSWVNCSNMIDEIITHLKQPPLPLLDFNNLNGEDQDILMENNLRRPNLEAFNRAVKSLQNASAIESILKNLLPCLPLATAAPTRHPIHIKDGDWNEFRRKLTFYLKTLENAQAQQTTLSLAIF
B1 was tested, and the “upregulation of CYP26A1 on BM stromal cells” value was “no significant effects”.

— patent US11648222B2, “Use of CYP26-resistant RAR alpha selective agonists in the treatment of cancer” (Io Therapeutics, Inc., priority 2015, dated 2023)
